Laboratory results published in ChEMBL document CHEMBL1124092 (J Med Chem, 1988).

Protein sequences, listed by entry. Tags and fused reporters are not part of them. Lines headed by an entry give the natural chain unless they say otherwise; changes in a name come on top.
UniProt P19327, whole entry: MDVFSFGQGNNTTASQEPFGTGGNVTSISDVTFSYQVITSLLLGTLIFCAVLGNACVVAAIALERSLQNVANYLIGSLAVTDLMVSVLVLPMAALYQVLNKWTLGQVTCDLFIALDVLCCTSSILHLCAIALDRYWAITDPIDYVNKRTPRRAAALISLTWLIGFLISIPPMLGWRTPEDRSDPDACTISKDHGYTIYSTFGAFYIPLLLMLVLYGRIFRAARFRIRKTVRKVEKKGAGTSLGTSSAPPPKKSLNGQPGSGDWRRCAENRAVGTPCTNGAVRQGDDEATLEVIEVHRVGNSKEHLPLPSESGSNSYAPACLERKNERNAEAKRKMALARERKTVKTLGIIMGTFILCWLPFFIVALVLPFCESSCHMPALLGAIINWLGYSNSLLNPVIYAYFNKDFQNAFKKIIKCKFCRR
UniProt P30994: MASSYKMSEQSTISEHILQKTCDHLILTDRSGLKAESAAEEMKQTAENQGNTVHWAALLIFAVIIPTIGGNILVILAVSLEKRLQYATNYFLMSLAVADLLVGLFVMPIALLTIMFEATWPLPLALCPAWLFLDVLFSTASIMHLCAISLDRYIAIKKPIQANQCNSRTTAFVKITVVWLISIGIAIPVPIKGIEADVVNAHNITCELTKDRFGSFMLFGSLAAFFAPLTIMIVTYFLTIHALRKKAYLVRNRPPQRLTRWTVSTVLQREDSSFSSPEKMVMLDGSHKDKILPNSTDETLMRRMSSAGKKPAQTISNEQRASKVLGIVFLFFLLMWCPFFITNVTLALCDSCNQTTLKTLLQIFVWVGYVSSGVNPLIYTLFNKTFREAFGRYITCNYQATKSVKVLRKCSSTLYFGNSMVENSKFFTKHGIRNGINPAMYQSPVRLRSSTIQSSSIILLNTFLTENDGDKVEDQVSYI
UniProt P08909: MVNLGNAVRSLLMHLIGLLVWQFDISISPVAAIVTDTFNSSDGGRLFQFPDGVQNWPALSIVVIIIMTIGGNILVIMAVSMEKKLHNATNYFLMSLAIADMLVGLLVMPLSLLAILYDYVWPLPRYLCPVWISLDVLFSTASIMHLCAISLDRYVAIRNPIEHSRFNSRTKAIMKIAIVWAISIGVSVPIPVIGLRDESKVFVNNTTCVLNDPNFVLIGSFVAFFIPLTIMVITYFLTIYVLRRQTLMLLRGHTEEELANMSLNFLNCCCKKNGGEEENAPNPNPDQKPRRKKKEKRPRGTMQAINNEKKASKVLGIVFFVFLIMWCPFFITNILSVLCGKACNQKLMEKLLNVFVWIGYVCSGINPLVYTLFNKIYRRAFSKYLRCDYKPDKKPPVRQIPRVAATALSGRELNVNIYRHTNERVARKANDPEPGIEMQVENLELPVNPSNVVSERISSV
UniProt P14842: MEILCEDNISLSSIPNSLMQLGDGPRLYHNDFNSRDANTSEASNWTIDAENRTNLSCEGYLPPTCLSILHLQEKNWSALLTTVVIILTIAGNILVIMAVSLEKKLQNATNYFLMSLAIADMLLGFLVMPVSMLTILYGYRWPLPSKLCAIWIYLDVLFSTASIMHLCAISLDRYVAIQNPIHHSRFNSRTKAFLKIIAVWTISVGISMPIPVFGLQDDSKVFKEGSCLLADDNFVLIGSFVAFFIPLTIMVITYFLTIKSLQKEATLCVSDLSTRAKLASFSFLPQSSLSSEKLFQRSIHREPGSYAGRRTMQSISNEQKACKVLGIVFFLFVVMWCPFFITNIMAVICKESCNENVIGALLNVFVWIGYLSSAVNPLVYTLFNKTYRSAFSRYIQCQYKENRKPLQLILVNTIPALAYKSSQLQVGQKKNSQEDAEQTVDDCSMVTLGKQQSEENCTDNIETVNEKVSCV

Legend:
[1] = target: 5-hydroxytryptamine receptor 1A (Rattus norvegicus, UniProt P19327); assay: Binding affinity towards 5-hydroxytryptamine 1A receptor
[2] = target: T1, Serotonin 2 (5-HT2) receptor (Rattus norvegicus, UniProt P30994+P08909+P14842); assay: Binding affinity towards 5-hydroxytryptamine 2 receptor using [3H]- 1-(4-bromo-2,5-dimethoxy-phenyl)-2-aminopropane (D) as radioligand; format: protein assay
[3] = target: T1, Serotonin 2 (5-HT2) receptor; assay: Binding affinity towards 5-hydroxytryptamine 2 receptor using [3H]- ketanserin as radioligand; format: protein assay

`NCCc1c[nH]c2ccc(O)cc12` [SEROTONIN] showed a Ki [1] of 1.7 nM.

`COc1ccc2[nH]cc(CCN(C)C)c2c1` [MEBUFOTENIN] was tested, and the Ki [2] was 15 nM and the Ki [3] was 620 nM.

`COc1ccc2[nH]cc(CCN)c2c1` [5-METHOXYTRYPTAMINE] showed a Ki [3] of 305 nM.
